Results reported in patent publication US8729078B2, “Inhibitors of bruton's tyrosine kinase” (Hoffmann-La Roche Inc., priority 2011, dated 2014).

Protein sequences, listed by entry. Tags and fused reporters are not part of them. Lines headed by an entry give the natural chain unless they say otherwise; changes in a name come on top.
UniProt Q06187: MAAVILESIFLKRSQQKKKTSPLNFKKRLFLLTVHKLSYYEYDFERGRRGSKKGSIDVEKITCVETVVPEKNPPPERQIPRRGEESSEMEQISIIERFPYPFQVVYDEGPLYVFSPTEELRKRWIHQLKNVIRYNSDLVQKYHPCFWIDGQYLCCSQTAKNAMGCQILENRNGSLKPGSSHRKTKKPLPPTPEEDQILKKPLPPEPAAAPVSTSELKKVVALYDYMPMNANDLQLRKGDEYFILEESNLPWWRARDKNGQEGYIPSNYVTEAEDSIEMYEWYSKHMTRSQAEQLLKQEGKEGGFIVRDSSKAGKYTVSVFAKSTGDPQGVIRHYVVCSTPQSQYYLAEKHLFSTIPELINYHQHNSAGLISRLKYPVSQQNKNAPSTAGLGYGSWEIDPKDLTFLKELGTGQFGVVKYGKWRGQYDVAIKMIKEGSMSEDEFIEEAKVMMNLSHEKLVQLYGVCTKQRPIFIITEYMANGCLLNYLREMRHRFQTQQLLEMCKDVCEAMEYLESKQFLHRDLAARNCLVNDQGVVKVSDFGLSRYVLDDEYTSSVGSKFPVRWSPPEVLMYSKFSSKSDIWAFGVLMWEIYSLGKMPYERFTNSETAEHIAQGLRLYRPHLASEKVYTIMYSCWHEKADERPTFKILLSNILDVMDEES

Biological target: Btk (Homo sapiens (Human), UniProt Q06187)
Experiment: Bruton's Tyrosine Kinase (Btk) inhibition assay (FRET BTK)
Format: biochemical

| SMILES | IC50 |
| --- | --- |
| CC(C)(C)c1cc(F)c2c(=O)n(-c3cccc(-n4cc(C(N)=O)c5ccccc54)c3CO)ncc2c1 [Compound I-17, 1-[3-(6-tert-Butyl-8-fluoro-1-oxo-1H-phthalazin-2-yl)-2-hydroxymethyl-phenyl]-1H-indole-3-carboxylic acid amide] | 4.1 nM |
| CC(C)(C)c1cc(F)c2c(=O)n(-c3cccc(-n4cc(C(N)=O)c(Nc5ccc(C(C)(C)O)cc5)n4)c3CO)ncc2c1 [Compound I-22, 1-[3-(6-tert-Butyl-8-fluoro-1-oxo-1H-phthalazin-2-yl)-2-hydroxymethyl-phenyl]-3-[4-(1-hydroxy-1-methyl-ethyl)-phenylamino]-1H-pyrazole-4-carboxylic acid amide] | 91.5 nM |
| CC(C)(C)c1ccc2c(=O)n(-c3cccc(-n4cc(C(N)=O)c(Nc5ccc(F)cn5)n4)c3CO)ncc2c1 [Compound I-35, 1-[3-(6-tert-Butyl-1-oxo-1H-phthalazin-2-yl)-2-hydroxymethyl-phenyl]-3-(5-fluoro-pyridin-2-ylamino)-1H-pyrazole-4-carboxylic acid amide] | 0.56 nM |
